The target of the assay is MT1 Receptor (Homo sapiens, UniProt P48039). Kind of assay: MT1 Receptor Binding.

Chains of the proteins cited; added tags and fusions are not shown.
UniProt P48039, whole entry: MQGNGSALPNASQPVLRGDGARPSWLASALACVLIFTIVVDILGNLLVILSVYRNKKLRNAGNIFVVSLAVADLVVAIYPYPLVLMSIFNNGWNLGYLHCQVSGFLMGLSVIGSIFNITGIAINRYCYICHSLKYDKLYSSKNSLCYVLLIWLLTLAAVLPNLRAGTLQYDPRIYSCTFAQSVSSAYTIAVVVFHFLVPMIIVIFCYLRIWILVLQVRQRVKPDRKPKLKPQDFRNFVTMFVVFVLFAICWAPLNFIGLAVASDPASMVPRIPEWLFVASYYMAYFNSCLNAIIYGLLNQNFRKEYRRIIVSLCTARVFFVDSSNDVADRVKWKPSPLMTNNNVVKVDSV

The structures appear in SMILES notation. Read-outs that look alike come from different tables or passages of the source.

Inhibition data for two molecules are collected here from patent publication US20110144331A1, “Cinnoline Compounds for the Treatment of Anxiety, Cognitive and Mood Disorders” (AstraZeneca AB, priority 2005, published 2011).

The term inhibition denotes how much of the control response was suppressed. The low end stands for a weak effect, the high end for a strong effect. The molecule `CCCNC(=O)c1nnc2c(-c3cc(OC)ccc3OC)c(F)ccc2c1N` registered an inhibition at 1 µM of 93%.

Molecule `CCCNC(=O)c1nnc2c(-c3ccc(OC)cc3OC)c(F)ccc2c1N` returned an inhibition at 1 µM (1 μM) of 88%.
